# This is a sample that favours compounds with a hit; in the whole collection about 16% have one here.
# miR-21 FLuc = raises the signal of a miR-21 reporter | AID 2288 | 340,000 tested, under 10 active | Potency, µM (series often up to 38.3 µM), without a hit: at the highest dose reporter change, positive = more light | HeLa miR-21 FLuc reporter, luciferase, 48 h; active = well fitted rising curve with a large enough effect; inconclusive = small, poorly fitted or top-dose-only effect; inactive = no such curve, though single readings can be large or run the other way;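 further: % of control where 0% means no effect; miR-21 action dims this reporter so a rising signal means less miR-21 action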
#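 Luminescence from a firefly luciferase reporter carrying a miR-21 binding site downstream, stably expressed under a CMV promoter in HeLa cells that make miR-21 endogenously, reports miRNA modulation after 48 h compound exposure up to approximately 40uM final.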
# TDP1 block = TDP1 (human) enzyme inhibition; Potency, µM (top dose mostly 130 µM), for inactives: top-dose activity change, negative = inhibition, usual class: inhibitors; recombinant TDP1, AlphaScreen DNA substrate cleavage; 0.28% of 350,000 active; Q9NUW8; note: potency is the fitted concentration of half-maximal effect; % is set by controls: 0 for no effect and ±100 for the full control effect; nearly all actives have a fitted effect of over 40% in size
#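 Recombinant E. coli-expressed Tdp1 (1 nM) preincubated with compound 15 min at RT, then 5'-biotin/3'-phosphotyrosine-FITC DNA substrate (15 nM) added for 5 min. AlphaScreen beads (10 ug/ml) added, 10 min RT; tyrosine-FITC cleavage read as signal loss.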
# TDP1 cell noCPT = qHTS for Inhibitors of human tyrosyl-DNA phosphodiesterase 1 (TDP1): qHTS in cells in absence of CPT; DT40 Tdp1-/- hTDP1 cells, no CPT, ATP luminescence, 48 h; 15% of 420,000 active; Potency, µM (series often up to 46.2 µM), inactives show at the top dose activity change, negative = growth inhibition, most hits filed as inhibitors; note: potency is the fitted concentration of half-maximal effect; % is set by controls: 0 for no effect and ±100 for the full control effect; nearly all actives have a fitted effect of over 55% in size
#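 Growth of hTDP1-complemented DT40 Tdp1-knockout cells is measured by ATP luminescence after at least 48 hr compound exposure at 37 °C, with DMSO substituting for the 20 nM CPT used in the parallel screen.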
# uPA generation = cell surface uPA generation inhibition | cell surface uPA generation assay, qHTS | Potency, µM (series often up to 38.3 µM), for the others: at the highest dose activity change, negative = inhibition, hits mostly inhibitors | 0.31% of 330,000 active; active = well fitted inhibition curve with a large enough effect; inconclusive = small, poorly fitted or top-dose-only effect; inactive = no such curve, though single readings can be large or run the other way; tested in mouse RAW 264.7 cells; note: potency is the fitted concentration of half-maximal effect; % is set by controls: 0 for no effect and ±100 for the full control effect; nearly all actives have a fitted effect of over 55% in size
# DT40 TDP1 CPT = DT40-hTDP1 cell growth loss with CPT | chicken DT40 Tdp1-/-;hTDP1 cells + 20 nM CPT, ATP luminescence, 48 h | Potency, µM (titrated, usually from 46.2 µM), inactives show at the top dose activity change, negative = growth inhibition, usual class: inhibitors | 12% of 420,000 active | AID 686979; note: potency is the fitted concentration of half-maximal effect; % is set by controls: 0 for no effect and ±100 for the full control effect; nearly all actives have a fitted effect of over 55% in size
#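 Chicken DT40 Tdp1-/- cells complemented with human TDP1, 400 cells/well, exposed to compounds plus 20 nM camptothecin for at least 48 h at 37 C; viability read as ATP content by CellTiter-Glo luminescence.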
# * = called active by the depositor; ? = inconclusive; . = no result; [ ] = remark or other dose. Unless noted, calls come from the whole dose curve; as a rule, active = well fitted curve in the direction sought with a large enough effect; inconclusive = small, poorly fitted or top-dose-only effect, or another doubt; inactive = no such curve, though single readings can be large; an effect the other way counts as inactive or inconclusive.
# Codes: A = miR-21 FLuc; B = TDP1 block; C = TDP1 cell noCPT; D = uPA generation; E = DT40 TDP1 CPT
Cn1c(OCc2cccnc2)nc2c1c(=O)n(Cc1ccccc1)c(=O)n2C
  A = 7.0%; B = 8.0%; C = 18.4µM*; D = 2.6%; E = ?
CCn1c(C)nc2cc(C(=O)N/N=C(\C)c3ccccc3O)ccc21
  A = -44.5%; B = 0.0%; C = 2.91µM*; D = -4.0%; E = 3.66µM*
CC(C)Nc1nc(NC(C)(C)C)nc(Oc2ccc(=O)n(C)n2)n1
  A = 0.8%; B = -1.2%; C = 3.2%; D = -10.8%; E = -16.1%
CC1CCN(CC(=O)Nc2ccccc2C(=O)c2ccccc2)CC1
  A = -1.6%; B = 0.0%; C = 14.6µM*; D = -1.3%; E = 20.6µM*
CC1CCN(CC(=O)Nc2ccccc2-c2ccccc2)CC1
  A = -1.6%; B = 0.0%; C = ?; D = 11.5%; E = 18.4µM*
CC1CCCCC1NCC(=O)Nc1ccccc1-c1ccccc1 (stereo not drawn)
  A = -6.8%; B = -5.5%; C = 18.4µM*; D = 2.6%; E = ?
CC1CCN(C(C)C(=O)Nc2ccccc2-c2ccccc2)CC1 (stereo not drawn)
  A = 0.0%; B = ?; C = ?; D = 8.6%; E = ?
CCOc1ccc(NC(=S)NCc2ccc3c(c2)OCO3)cc1
  A = -11.3%; B = .; C = ?; D = 4.0%; E = ?
O=C(CCS(=O)(=O)c1cc2c(cc1Cl)NC(=O)CO2)NCc1ccc(Cl)cc1
  A = -2.5%; B = -1.3%; C = .; D = .; E = .
O=C(c1ccccc1)c1cc(Cl)ccc1N1C(=O)C=CC1=O
  A = ?; B = 6.0%; C = 1.16µM*; D = -9.9%; E = 2.31µM*

# New compounds follow.
# Codes: A = miR-21 FLuc; B = TDP1 block; C = TDP1 cell noCPT; D = uPA generation; E = DT40 TDP1 CPT
CCc1cc(=O)n2[nH]c(C)c(-c3ccccc3OC)c2n1
  A = 13.5%; B = 5.4%; C = ?; D = 13.9%; E = -15.2%
COCc1cc(=O)n2[nH]c(C)c(-c3ccc(Cl)cc3)c2n1
  A = .; B = .; C = 16.4µM*; D = .; E = 13µM*
Cc1[nH]n2c(=O)cc(-c3ccccc3Cl)nc2c1-c1ccccc1
  A = -0.2%; B = 13.6%; C = 2.59µM*; D = .; E = 9.2µM*
Cc1cc(Cl)ccc1NC(=O)C1CCCN(c2nnc(C)c3c(C)n(-c4ccccc4)nc23)C1 (stereo not drawn)
  A = -2.4%; B = 5.6%; C = -13.6%; D = .; E = 5.6%
COc1ccc(-c2cc(C(F)(F)F)n3nc(C(=O)Nc4ccc(Cl)cc4C(F)(F)F)cc3n2)cc1OC
  A = -0.5%; B = 0.6%; C = -5.5%; D = .; E = -9.9%
CCCCNC(=O)c1cc2nc(-c3ccc(OC)cc3)cc(C(F)(F)F)n2n1
  A = .; B = .; C = 25.9µM*; D = .; E = ?
COc1cc(NC(=O)c2cc3nc(-c4ccc(C)cc4)cc(C(F)(F)F)n3n2)cc(OC)c1OC
  A = -5.3%; B = 0.4%[12.3 µM]; C = 7.31µM*; D = .; E = ?
COc1ccc(-c2cc(C(F)(F)F)n3nc(C(=O)N(C)Cc4ccccc4)cc3n2)cc1OC
  A = -1.4%; B = 7.7%; C = ?; D = -2.6%; E = 16.4µM*
CCCCNC(=O)c1nn2c(C(F)(F)F)cc(-c3ccc(OC)cc3)nc2c1Br
  A = -1.9%; B = .; C = ?; D = -0.8%; E = 23.1µM*
COc1ccc(Cl)cc1NC(=S)N1CCN(S(C)(=O)=O)CC1
  A = -1.3%; B = 5.6%; C = -11.5%; D = 3.5%; E = -0.1%

# (more compounds)
# Codes: A = miR-21 FLuc; B = TDP1 block; C = TDP1 cell noCPT; D = uPA generation; E = DT40 TDP1 CPT
COc1ccc(N2CCN(CC(=O)Nc3ccc(C)c(C)c3)CC2)cc1
  A = -2.4%; B = .; C = -12.0%; D = 4.5%; E = -15.7%
Cc1noc(C)c1COC(=O)c1cccc(S(=O)(=O)N2CCCCCC2)c1
  A = 20.2%; B = 2.0%; C = 14.6µM*; D = -9.6%; E = 14.6µM*
COc1cc(OC)c(N(C)S(=O)(=O)c2cccc(C(=O)OCc3c(C)noc3C)c2)cc1Cl
  A = 6.3%; B = 2.6%; C = 23.1µM*; D = 1.5%; E = ?
COc1cc(C(C)=O)ccc1OC(=O)C(C)N1C(=O)c2ccccc2C1=O (stereo not drawn)
  A = -5.5%; B = -2.2%; C = -14.5%; D = 7.8%; E = 4.2%
Cc1nc2sccn2c(=O)c1S(=O)(=O)Nc1ccc(N2CCOCC2)cc1
  A = 0.0%; B = 5.1%; C = -25.1%; D = .; E = ?
COc1ccc(CCNCc2cc(C)n(-c3ccc(OC)cc3)c2C)cc1
  A = 2.1%; B = .; C = ?; D = ?; E = 16.4µM*
COc1ccc(CCNCc2ccccc2N2CCCC2)cc1
  A = 10.5%; B = .; C = ?; D = -6.1%; E = 18.4µM*
COc1ccccc1CNC(=O)C1CCN(C(=O)c2sccc2-n2cccc2)CC1
  A = -1.5%; B = 2.1%; C = ?; D = -9.8%; E = -23.0%
COc1ccc([N+](=O)[O-])cc1N(CC(=O)NCc1ccco1)S(C)(=O)=O
  A = -2.9%; B = 4.8%; C = -17.9%; D = 3.0%; E = 6.0%
COc1cccc(NC(=S)NC2CC(C)CC(C)(C)C2)c1 (stereo not drawn)
  A = .; B = .; C = 23.1µM*; D = .; E = 20.6µM*

# New compounds follow:
# Codes: A = miR-21 FLuc; B = TDP1 block; C = TDP1 cell noCPT; D = uPA generation; E = DT40 TDP1 CPT
CC(=O)c1cccc(NC(=O)[C@H]2O[C@@H]3OC(C)(C)O[C@@H]3[C@H]3OC(C)(C)O[C@H]32)c1
  A = -11.7%; B = 2.5%; C = 1.0%; D = .; E = 15.5%
CC(C)=NO[C@@H](C)c1cc(-c2c(C)cc(C)cc2C)no1
  A = .; B = 2.6%[21 µM]; C = .; D = .; E = .
COC(=O)/C=C1\S/C(=N\N=C\CC(=O)OC)NC1=O
  A = -0.1%; B = .; C = 5.17µM*; D = 0.8%; E = 3.66µM*
CCOC(=O)c1cnn(-c2cc(Oc3cccc(C)c3)ncn2)c1N
  A = -3.7%; B = 2.0%; C = ?; D = -6.1%; E = -16.9%
COCCNC(=O)/C(C#N)=C/c1ccc(OCc2ccc(F)cc2)cc1
  A = -37.9%; B = 2.6%; C = -4.7%; D = -0.9%; E = -1.8%
O=CNc1cc(-c2ccc(C(=O)NC3CC3)cc2)cn2c(-c3ccc(F)c(Cl)c3)cnc12
  A = .; B = .; C = 13µM*; D = .; E = 18.4µM*
O=C(NC1CCCCC1)c1ccc(-c2ccccc2)cc1
  A = .; B = .; C = -21.2%; D = -19.0%; E = -22.9%
O=C(NC1CCCCC1)c1ccc(Cl)c(NC(=O)c2ccccc2F)c1
  A = -5.1%; B = 3.5%; C = .; D = .; E = .
CC(=O)c1ccc(-c2cnc3c(NC=O)cc(-c4ccc(C(=O)NC5CC5)cc4)cn23)cc1
  A = .; B = .; C = 5.17µM*; D = .; E = 5.8µM*
O=CNc1cc(-c2ccc(C(=O)NC3CC3)cc2)cn2c(-c3ccccc3)cnc12
  A = .; B = .; C = 7.31µM*; D = .; E = 10.3µM*

# Next part (4 carried over from the part before).
# Codes: A = miR-21 FLuc; B = TDP1 block; C = TDP1 cell noCPT; D = uPA generation; E = DT40 TDP1 CPT
O=C(NC1CCCCC1)c1ccc(-c2ccccc2)cc1
  A = .; B = .; C = -21.2%; D = -19.0%; E = -22.9%
O=C(NC1CCCCC1)c1ccc(Cl)c(NC(=O)c2ccccc2F)c1
  A = -5.1%; B = 3.5%; C = .; D = .; E = .
CC(=O)c1ccc(-c2cnc3c(NC=O)cc(-c4ccc(C(=O)NC5CC5)cc4)cn23)cc1
  A = .; B = .; C = 5.17µM*; D = .; E = 5.8µM*
O=CNc1cc(-c2ccc(C(=O)NC3CC3)cc2)cn2c(-c3ccccc3)cnc12
  A = .; B = .; C = 7.31µM*; D = .; E = 10.3µM*
CC(C)CCOc1ccc(C(=O)NCC(c2cccs2)N2CCOCC2)cc1 (stereo not drawn)
  A = .; B = .; C = ?; D = 2.2%; E = ?
CC12CCC(=O)C=C1CCC1C3CC(O)C(O)(C(=O)CO)C3(C)CC(O)C12F (stereo not drawn)
  A = .; B = .; C = 3.5%; D = -7.1%; E = 5.4%
CC(=O)C1CCC2C3CCC4=CC(=O)CCC4(C)C3(F)C(O)CC12C (stereo not drawn)
  A = .; B = .; C = 23.1µM*; D = 1.1%; E = 23.1µM*
COc1cc([N+](=O)[O-])ccc1NC(=O)CCCOc1cc(C)ccc1C
  A = -1.4%; B = 3.0%; C = 4.7%; D = 3.8%; E = -11.7%
O=C(Nc1cccc(-c2nc3ncccc3o2)c1)c1ccccc1
  A = -3.1%; B = 2.4%; C = 11.6µM*; D = -14.5%; E = ?
Cc1c(NC(=O)c2cccc(-c3cc4ccccc4oc3=O)c2)cccc1-c1nc2ncccc2o1
  A = -29.5%; B = -11.1%; C = 20.6µM*; D = 4.7%; E = 25.9µM*
CNc1snc(C)c1C(=O)OCC(=O)c1cc(F)ccc1OC
  A = .; B = 1.6%; C = -24.1%; D = -11.0%; E = ?
Cc1ccc(NC(=O)Cc2ccc(Cl)c(Cl)c2)cc1S(=O)(=O)N(C)C
  A = 15.5%; B = 2.8%; C = 23.1µM*; D = -7.1%; E = ?
